Experimental data taken from patent publication US9371319B2, “Pyrrolopyridineamino derivatives as MPS1 inhibitors” (priority 2011, dated 2016).

Sequences of proteins named here, by UniProt entry; tags and fusion partners are left off.
UniProt P33981, whole entry: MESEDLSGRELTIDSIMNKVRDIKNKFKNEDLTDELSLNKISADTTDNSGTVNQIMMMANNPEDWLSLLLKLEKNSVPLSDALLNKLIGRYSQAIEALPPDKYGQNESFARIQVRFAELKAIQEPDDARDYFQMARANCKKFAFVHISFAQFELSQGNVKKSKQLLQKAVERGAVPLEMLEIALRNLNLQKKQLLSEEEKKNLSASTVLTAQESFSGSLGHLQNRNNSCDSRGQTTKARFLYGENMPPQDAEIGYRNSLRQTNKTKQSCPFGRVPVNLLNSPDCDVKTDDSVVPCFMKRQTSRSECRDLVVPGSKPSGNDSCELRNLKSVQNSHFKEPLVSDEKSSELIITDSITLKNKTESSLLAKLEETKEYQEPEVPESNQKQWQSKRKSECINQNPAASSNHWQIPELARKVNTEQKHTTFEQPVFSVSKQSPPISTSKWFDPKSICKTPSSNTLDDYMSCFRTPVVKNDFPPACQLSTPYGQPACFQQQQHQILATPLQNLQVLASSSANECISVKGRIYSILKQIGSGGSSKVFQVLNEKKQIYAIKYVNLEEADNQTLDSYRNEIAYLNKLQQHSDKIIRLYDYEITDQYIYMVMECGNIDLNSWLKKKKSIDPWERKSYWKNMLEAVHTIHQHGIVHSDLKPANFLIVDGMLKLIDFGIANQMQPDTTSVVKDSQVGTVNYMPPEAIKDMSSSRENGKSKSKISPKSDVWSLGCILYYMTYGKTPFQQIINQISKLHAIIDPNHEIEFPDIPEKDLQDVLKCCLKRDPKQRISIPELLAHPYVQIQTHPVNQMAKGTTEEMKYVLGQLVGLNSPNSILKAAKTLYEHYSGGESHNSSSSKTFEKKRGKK

Biological target: full length MPS1 (Homo sapiens, UniProt P33981)

In the case of COc1nc(-c2cnn(C)c2)ncc1Nc1cc2c(cn1)cc(-c1cnn(C)c1)n2C(=O)OC(C)C, the IC50 is reported as 14 nM.
